Reference: patent publication US8969563B2, “Calcium salt of pyrroloquinoline quinone” (Mitsubishi Gas Chemical Company, Inc., priority 2010, dated 2015)

Key:
[1] = Elution test: amount of PQQ dissolved from the calcium salt with or without a chelating substance; assay type: physicochemical; conditions: water, no chelating substance
Method: Changes in the solubility of the insoluble salt due to the addition of a chelating substance were measured. The amount of PQQ dissolved was measured by mixing a chelating substance with crystalline calcium salts of PQQ obtained in Examples 1 and 2, adding the mixture to water (1 mL), allowing the reaction mixture to stand for four hours at room temperature, removing insoluble components through centrifugation, and subjecting the resultant liquid to absorption measurement at 450 nm.

[2] = Water solubility of the recovered solid (description); assay type: physicochemical; conditions: dried solid

crystalline calcium salt of PQQ [Example 2]
solubility of the calcium salt alone [1]: very low | water solubility [2]: poorly water-soluble
